Measured values published in US20080009485A1, “Methods for the use of inhibitors of cytosolic phospholipase A2 in the treatment of thrombosis” (Wyeth, priority 2006, published 2008).

Columns and labels:
[1] = system: Sprague Dawley outbreed rats; settings: 100 mg/kg oral gavage 2 hours before injury, flow recorded 30 minutes, controls occluded within 15-30 minutes
[2] = system: human platelets; settings: 10 μM ADP
[3] = system: Human platelet aggregation; assay: Platelet Function Analyzer (PFA-100) study, whole human blood in vitro; type: cell-based; settings: Collagen/Epinephrine cartridges, maximum closure time 300 seconds
Excerpt: Platelet Function Analyzer (PFA-100®) Study

[4] = system: serum thromboxane B2; settings: ApoE knockout mice, 3.3 mg per gram chow ad libitum

O=C(O)c1ccc(CCCc2c(CCNS(=O)(=O)Cc3ccc(Cl)c(Cl)c3)n(C(c3ccccc3)c3ccccc3)c3ccc(Cl)cc23)cc1 [Example 44]
carotid artery blood flow / occlusion after FeCl3 injury [1]: a reduction of blood flow, but no occlusion | concentration down to which complete blockade of the ATP release reaction was observed ([2]; human whole blood): ≤ 0.3 µg/mL | inhibition of platelet dense granule ATP release reaction ([2]; whole human blood, Example 44 tested from 0.31 to 5 μg/ml): able to attenuate the release reaction at all concentrations tested | concentration giving maximal prolongation of PFA-100 closure time [3]: approximately 2.5 μg/ml | average reduction in serum thromboxane B2 levels compared to control mice [4]: 56%
